This is an account of results in PubChem BioAssay AID602123 (The Scripps Research Institute Molecular Screening Center, 2011).

Chains of the proteins cited; added tags and fusions are not shown.
UniProt P0A9M0, whole entry: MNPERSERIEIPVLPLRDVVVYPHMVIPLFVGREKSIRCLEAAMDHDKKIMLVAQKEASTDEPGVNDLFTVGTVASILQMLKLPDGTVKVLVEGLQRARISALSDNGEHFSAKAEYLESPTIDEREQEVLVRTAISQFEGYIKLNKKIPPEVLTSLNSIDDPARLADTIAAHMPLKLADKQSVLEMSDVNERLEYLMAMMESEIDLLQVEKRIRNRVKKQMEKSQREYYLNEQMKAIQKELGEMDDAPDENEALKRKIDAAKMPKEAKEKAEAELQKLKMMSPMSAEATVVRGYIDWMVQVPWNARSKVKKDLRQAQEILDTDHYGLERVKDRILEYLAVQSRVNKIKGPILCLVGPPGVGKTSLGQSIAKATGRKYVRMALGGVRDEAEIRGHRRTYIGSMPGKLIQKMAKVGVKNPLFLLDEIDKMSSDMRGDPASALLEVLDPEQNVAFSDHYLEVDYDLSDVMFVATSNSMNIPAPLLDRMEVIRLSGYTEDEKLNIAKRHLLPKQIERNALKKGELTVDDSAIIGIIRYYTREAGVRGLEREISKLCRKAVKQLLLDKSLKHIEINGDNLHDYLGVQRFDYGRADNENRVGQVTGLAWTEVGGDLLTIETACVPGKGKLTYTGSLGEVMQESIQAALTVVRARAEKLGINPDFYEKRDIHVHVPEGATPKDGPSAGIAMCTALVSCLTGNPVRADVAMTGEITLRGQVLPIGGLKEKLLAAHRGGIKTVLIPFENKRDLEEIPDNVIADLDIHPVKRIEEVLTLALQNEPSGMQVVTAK

One may read the inhibition as the relative decrease from the control value, in per cent.

Structures are written as SMILES. This is a selection; strong and weak results do not stand in their true shares. The source made the active and inactive calls. Rule as the data show it: active = inhibition above about 13% (passing the limit was not always enough); inactive = the rest.

In this assay the target is Lon protease (Escherichia coli (strain K12)) (UniProt P0A9M0). The assay is described as follows: inhibitors of E. coli Lon protease, primary screen, biochemical, fluorescence polarization (AID 602123).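 Also: 0% = enzyme with probe and DMSO and 100% = no enzyme.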 Particulars: purified E. coli Lon protease, at 7.94 µM, stronger effect = higher value. (In general: In fluorescence polarisation assays a small probe gives low polarisation when free and higher when bound to something large.)
Take `CCC(=O)N(c1ccccc1)C1(COC)CCN(CCn2nnn(CC)c2=O)CC1`: the inhibition is inactive: -7.85%.

Consider `CCC(=O)N(c1ccccc1)C1(COC)CCN(CCc2cccs2)CC1`, for which the inhibition is inactive: -9.88%.
